Assay [1] has as its target Oxysterols receptor LXR-alpha (Homo sapiens, UniProt Q13133). Nature of the assay: Activation of GAL4 fused human LXR alpha expressed in HEK293 cells after 24 hrs by luciferase reporter gene assay relative to 22R-HC. The class given is cell-based. The method in brief:
(§1)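 HEK293 cells carrying the Gal4-LXR-α or Gal4-LXR-β chimera plus the pMH100X4-TK-luc and Renilla reporters. Treatment started 6 h post-transfection and ran 24 h. Dual luciferase read-out. Efficacy is given as % of the response to 8 μM 22R-HC, ± SD, from three to five independent experiments.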
A general note: In a reporter assay the amount or activity of a reporter protein is the signal.

Amino acid sequences for entries named in this document (tags omitted).
UniProt Q13133, whole entry: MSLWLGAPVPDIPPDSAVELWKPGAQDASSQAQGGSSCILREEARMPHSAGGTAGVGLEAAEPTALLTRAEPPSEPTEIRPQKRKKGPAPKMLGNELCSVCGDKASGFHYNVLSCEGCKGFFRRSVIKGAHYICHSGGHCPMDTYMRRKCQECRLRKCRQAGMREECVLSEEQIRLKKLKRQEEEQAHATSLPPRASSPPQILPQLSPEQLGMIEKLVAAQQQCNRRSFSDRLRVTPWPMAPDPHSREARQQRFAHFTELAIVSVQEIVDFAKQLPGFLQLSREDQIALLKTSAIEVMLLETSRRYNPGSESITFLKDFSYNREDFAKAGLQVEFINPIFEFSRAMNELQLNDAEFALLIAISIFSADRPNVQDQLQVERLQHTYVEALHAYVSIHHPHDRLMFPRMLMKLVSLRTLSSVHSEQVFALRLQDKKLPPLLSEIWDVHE
UniProt P55055, whole entry: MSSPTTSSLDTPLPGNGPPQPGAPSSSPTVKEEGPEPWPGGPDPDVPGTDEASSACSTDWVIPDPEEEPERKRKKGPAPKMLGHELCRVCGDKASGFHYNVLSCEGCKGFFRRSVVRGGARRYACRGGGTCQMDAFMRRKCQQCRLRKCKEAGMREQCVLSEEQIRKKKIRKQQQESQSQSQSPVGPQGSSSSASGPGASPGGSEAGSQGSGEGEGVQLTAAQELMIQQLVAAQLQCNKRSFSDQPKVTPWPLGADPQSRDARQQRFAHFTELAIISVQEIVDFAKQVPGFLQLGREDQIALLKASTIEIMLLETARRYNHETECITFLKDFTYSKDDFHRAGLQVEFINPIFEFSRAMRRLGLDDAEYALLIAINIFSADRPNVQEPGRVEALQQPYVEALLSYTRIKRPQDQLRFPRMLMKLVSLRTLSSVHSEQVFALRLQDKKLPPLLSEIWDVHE

Assay [2] deals with Oxysterols receptor LXR-beta (Homo sapiens, UniProt P55055). Nature of the assay: Activation of GAL4 fused human LXR beta expressed in HEK293 cells after 24 hrs by luciferase reporter gene assay relative to 22R-HC. Format: cell-based. The method in brief: as §1

`CC(C)[C@@H](C)C[C@H](O)[C@@H](C)[C@H]1CC[C@H]2C3=CC=C4C[C@@H](O)CC[C@]4(C)[C@H]3CC[C@]12C`: the Efficacy in assay [1] was 74.7%; in assay [2], 41.9%.
Take `CC[C@H](C[C@@H](O)[C@@H](C)[C@H]1CC[C@H]2[C@@H]3CC=C4C[C@@H](O)CC[C@]4(C)[C@H]3CC[C@]12C)C(C)C`: the Efficacy in assay [1] was determined as 208%; in assay [2], 90.8%.
Regarding `CC[C@@H](C(C)C)[C@H](O)C[C@@H](C)[C@H]1CC[C@H]2[C@@H]3CC=C4C[C@@H](O)CC[C@]4(C)[C@H]3CC[C@]12C`, the Efficacy came to 489% in assay [1] and 115% in assay [2].

The values above are taken from ChEMBL document CHEMBL4038329, “Side-Chain Modified Ergosterol and Stigmasterol Derivatives as Liver X Receptor Agonists” (J Med Chem, 2017).
